Here are results for one compound from ChEMBL document CHEMBL3769405, “Discovery of Potent and Selective Inhibitors of Phosphodiesterase 1 for the Treatment of Cognitive Impairment Associated with Neurodegenerative and Neuropsychiatric Diseases” (J Med Chem, 2016).

By UniProt entry, the sequences of proteins in these tests, tags left out. Where a name states a change or a piece, a line headed by the entry shows the natural chain unless it says otherwise.
UniProt O76083: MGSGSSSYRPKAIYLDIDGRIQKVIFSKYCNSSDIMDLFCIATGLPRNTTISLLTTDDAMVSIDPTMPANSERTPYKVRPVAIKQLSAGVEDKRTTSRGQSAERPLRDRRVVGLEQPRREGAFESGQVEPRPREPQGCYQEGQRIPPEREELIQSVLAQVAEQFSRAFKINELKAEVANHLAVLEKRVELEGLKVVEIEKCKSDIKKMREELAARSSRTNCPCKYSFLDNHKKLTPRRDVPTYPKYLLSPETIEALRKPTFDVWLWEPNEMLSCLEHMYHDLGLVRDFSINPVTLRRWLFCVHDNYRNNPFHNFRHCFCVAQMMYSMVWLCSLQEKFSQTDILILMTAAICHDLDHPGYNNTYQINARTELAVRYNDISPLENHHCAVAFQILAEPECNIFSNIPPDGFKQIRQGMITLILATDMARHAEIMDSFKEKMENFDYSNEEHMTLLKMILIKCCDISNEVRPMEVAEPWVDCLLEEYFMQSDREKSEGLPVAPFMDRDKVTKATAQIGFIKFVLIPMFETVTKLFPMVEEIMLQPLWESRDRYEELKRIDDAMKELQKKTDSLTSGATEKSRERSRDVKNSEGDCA
UniProt O00408, whole entry: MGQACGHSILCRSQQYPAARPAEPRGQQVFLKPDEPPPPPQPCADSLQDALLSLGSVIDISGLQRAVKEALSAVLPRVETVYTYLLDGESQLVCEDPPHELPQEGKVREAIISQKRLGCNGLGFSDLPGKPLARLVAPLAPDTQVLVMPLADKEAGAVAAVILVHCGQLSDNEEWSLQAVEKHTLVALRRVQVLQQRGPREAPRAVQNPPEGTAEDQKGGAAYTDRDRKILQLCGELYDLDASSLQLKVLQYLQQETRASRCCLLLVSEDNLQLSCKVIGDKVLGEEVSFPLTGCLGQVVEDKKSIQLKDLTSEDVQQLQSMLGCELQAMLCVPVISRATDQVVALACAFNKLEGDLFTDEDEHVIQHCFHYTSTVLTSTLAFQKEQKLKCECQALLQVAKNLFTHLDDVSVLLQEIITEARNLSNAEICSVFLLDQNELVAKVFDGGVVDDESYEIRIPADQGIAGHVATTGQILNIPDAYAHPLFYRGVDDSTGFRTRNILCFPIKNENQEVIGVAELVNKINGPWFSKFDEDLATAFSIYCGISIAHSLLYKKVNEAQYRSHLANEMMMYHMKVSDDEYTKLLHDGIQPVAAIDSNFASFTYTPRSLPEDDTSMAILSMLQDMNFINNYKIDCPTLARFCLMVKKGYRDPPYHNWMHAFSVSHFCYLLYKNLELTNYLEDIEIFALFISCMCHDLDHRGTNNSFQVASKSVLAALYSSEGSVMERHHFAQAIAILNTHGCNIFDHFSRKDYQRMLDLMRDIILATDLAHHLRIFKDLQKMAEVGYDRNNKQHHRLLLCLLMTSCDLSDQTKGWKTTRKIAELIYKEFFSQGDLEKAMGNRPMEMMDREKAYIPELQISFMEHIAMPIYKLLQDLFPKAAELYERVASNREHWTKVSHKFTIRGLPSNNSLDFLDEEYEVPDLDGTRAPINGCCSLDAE

What is called Ki is the equilibrium dissociation constant of an inhibitor or competing ligand from its target.

The target in assay [1] is High affinity cGMP-specific 3',5'-cyclic phosphodiesterase 9A (Homo sapiens, UniProt O76083). Kind of assay: Inhibition of recombinant full lenght human PDE9A using fluorescent labeled cGMP as substrate after 15 mins by IMAP assay.
The target in assay [2] is cGMP-dependent 3',5'-cyclic phosphodiesterase (Homo sapiens, UniProt O00408). Kind of assay: Inhibition of recombinant full length human PDE2A using fluorescent labeled cAMP as substrate after 15 mins by IMAP assay.

For `CN1C(=O)c2c(nn(Cc3ccc(-c4cccc(F)n4)cc3)c2Nc2ccccc2)N2C1=N[C@@H]1CCC[C@@H]12.O=P(O)(O)O` [LENRISPODUN PHOSPHATE], the Ki in assay [1] came out at 17 µM; in assay [2] it was 18 µM.
